## Reported Henry's law constant values for industrial, environmental and drug-like chemicals

Data: OPERA 2.9 data sets, kmansouri/OPERA on GitHub.

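These are experimental values that the OPERA curators gathered from public databases to train and test their QSAR models. A listed value is a point estimate from one report or more. Method and conditions are not stated for these values. A value may pool stereoisomers or salt forms, and the file does not say which form was measured. Some entries may be limits or estimates that an upstream database listed as plain numbers.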

Henry's law constant (air-water partitioning) is log10 of atm·m3/mol, nominally at 25 °C.
Cells with "–" have no entry in this list.

{"smiles": "COP(=O)(OC)O/C(=C\\Cl)c1cc(Cl)c(Cl)cc1Cl", "log H (log10 atm·m3/mol)": "-8.736"}
{"smiles": "O=C(O)c1ccccc1C(=O)Nc1cccc2ccccc12", "name": "Naptalam", "log H (log10 atm·m3/mol)": "-2.718"}
{"smiles": "C#CCN1CC(=O)N(COC(=O)C2C(C=C(C)C)C2(C)C)C1=O", "stereo": "stereo not given", "name": "Imiprothrin", "log H (log10 atm·m3/mol)": "-10.21"}
{"smiles": "COC(=O)C(C)N(C(=O)c1ccco1)c1c(C)cccc1C", "stereo": "stereo not given", "name": "Furalaxyl", "log H (log10 atm·m3/mol)": "-9.037"}
{"smiles": "CNC(=O)Oc1ccccc1C(C)C", "name": "Isoprocarb", "log H (log10 atm·m3/mol)": "-7.705"}
{"smiles": "CN(C)C(=S)SSC(=S)N(C)C", "name": "Bis(dimethylaminothiocarbonyl) disulfide", "log H (log10 atm·m3/mol)": "-6.487"}
{"smiles": "CNC(=O)Oc1ccccc1C1OCCO1", "name": "Dioxacarb", "log H (log10 atm·m3/mol)": "-10.83"}
{"smiles": "COC(=O)NC(=S)Nc1ccccc1NC(=S)NC(=O)OC", "name": "Thiophanate-methyl", "log H (log10 atm·m3/mol)": "-9.097"}
{"smiles": "Clc1cc(Cl)nc(-c2ccccc2)n1", "name": "4,6-Dichloro-2-phenylpyrimidine", "log H (log10 atm·m3/mol)": "-4.964"}
{"smiles": "Clc1cccc(C(Cl)(Cl)Cl)n1", "name": "Nitrapyrin", "log H (log10 atm·m3/mol)": "-4.853"}
{"smiles": "Cc1cc(=O)[nH]o1", "name": "Hymexazol", "log H (log10 atm·m3/mol)": "-8.86"}
{"smiles": "CC(C)OC(=O)Cl", "name": "Isopropyl chloroformate", "log H (log10 atm·m3/mol)": "-2.382"}
{"smiles": "CCOC(=O)C1(C)OC(=O)N(c2cc(Cl)cc(Cl)c2)C1=O", "stereo": "stereo not given", "name": "Chlozolinate", "log H (log10 atm·m3/mol)": "-8.875"}
{"smiles": "CC1(C)C(/C=C(\\Cl)C(F)(F)F)C1C(=O)OC(C#N)c1cccc(Oc2ccccc2)c1", "stereo": "stereo partly drawn", "name": "alpha-Cyhalothrin", "log H (log10 atm·m3/mol)": "-6.75"}
{"smiles": "CNC(=O)ON=CC(C)(C)S(C)(=O)=O", "name": "Aldicarb sulfone", "log H (log10 atm·m3/mol)": "-10.55"}
{"smiles": "CCCCc1c(C)nc(N(C)C)nc1O", "name": "Dimethirimol", "log H (log10 atm·m3/mol)": "-8.599"}
{"smiles": "CCCSP(=S)(OCC)Oc1ccc(SC)cc1", "stereo": "stereo not given", "name": "Sulprofos", "log H (log10 atm·m3/mol)": "-6.066"}
{"smiles": "CCSCCSP(=S)(OC)OC", "name": "Thiometon", "log H (log10 atm·m3/mol)": "-6.552"}
{"smiles": "CC(C)(COCc1cccc(Oc2ccccc2)c1)c1ccc(OC(F)(F)Br)cc1", "name": "Halfenprox", "log H (log10 atm·m3/mol)": "-4.134"}
{"smiles": "C#CCOC(=O)/C=C(C)/C=C/CC(C)CCCC(C)C", "stereo": "stereo partly drawn", "name": "Kinoprene", "log H (log10 atm·m3/mol)": "-4.47"}
{"smiles": "CNC(=O)ON=C(CSC)C(C)(C)C", "log H (log10 atm·m3/mol)": "-8.028"}
{"smiles": "NC(=S)c1c(Cl)cccc1Cl", "name": "Chlorthiamid", "log H (log10 atm·m3/mol)": "-9.555"}
{"smiles": "COP(N)(=O)SC", "stereo": "stereo not given", "name": "Methamidophos", "log H (log10 atm·m3/mol)": "-10.8"}
{"smiles": "CC(C)OC(=O)c1cc(-c2nn(C)c(C(F)(F)F)c2Br)c(F)cc1Cl", "name": "Fluazolate", "log H (log10 atm·m3/mol)": "-6.109"}
{"smiles": "CNC(=O)ON=CC(C)(C)S(C)=O", "stereo": "stereo not given", "name": "Aldicarb sulfoxide", "log H (log10 atm·m3/mol)": "-9.014"}
{"smiles": "Cc1ccccc1C(=O)Nc1cccc(OC(C)C)c1", "name": "Mepronil", "log H (log10 atm·m3/mol)": "-7.93"}
{"smiles": "CC(Oc1cccc(Cl)c1)C(=O)O", "stereo": "stereo not given", "name": "2-(m-Chlorophenoxy)propionic acid", "log H (log10 atm·m3/mol)": "-7.783"}
{"smiles": "CCN(C(=O)SCc1ccccc1)C(C)C(C)C", "stereo": "stereo not given", "name": "Esprocarb", "log H (log10 atm·m3/mol)": "-5.268"}
{"smiles": "CN(C)C(O)=Nc1ccc(-n2nc(C(C)(C)C)oc2=O)c(Cl)c1", "name": "Dimefuron", "log H (log10 atm·m3/mol)": "-7.679"}
{"smiles": "CCCCCCCCSC(=O)Oc1cc(Cl)nnc1-c1ccccc1", "name": "Pyridate", "log H (log10 atm·m3/mol)": "-8.923"}
{"smiles": "CC1(C)[C@H](C=C(Cl)Cl)[C@H]1C(=O)OCc1c(F)c(F)cc(F)c1F", "name": "Transfluthrin", "log H (log10 atm·m3/mol)": "-4.591"}
{"smiles": "CC1(C)OC(c2ccco2)CN1C(=O)C(Cl)Cl", "stereo": "stereo not given", "name": "Furilazole", "log H (log10 atm·m3/mol)": "-10.04"}
{"smiles": "CC1(C)[C@H](C(=O)O[C@H](C#N)c2cccc(Oc3ccccc3)c2)[C@@H]1/C=C\\C(=O)OC(C(F)(F)F)C(F)(F)F", "name": "Acrinathrin", "log H (log10 atm·m3/mol)": "-6.75"}
{"smiles": "CCC1(CC2(c3cccc(Cl)c3)CO2)C(=O)c2ccccc2C1=O", "stereo": "stereo not given", "name": "Indanofan", "log H (log10 atm·m3/mol)": "-9.258"}
{"smiles": "Cc1ccc(N(SC(F)(Cl)Cl)S(=O)(=O)N(C)C)cc1", "name": "Tolylfluanid", "log H (log10 atm·m3/mol)": "-6.119"}
{"smiles": "CNC(=O)N(C)c1nc2ccccc2s1", "name": "Methabenzthiazuron", "log H (log10 atm·m3/mol)": "-7.298"}
{"smiles": "CCOP(=S)(OCC)Oc1cnc2ccccc2n1", "name": "Quinalphos", "log H (log10 atm·m3/mol)": "-7.334"}

Excerpt, the opening 4 entries:

structure (SMILES)	name	log H (log10 atm·m3/mol)
COP(=O)(OC)O/C(=C\Cl)c1cc(Cl)c(Cl)cc1Cl	–	-8.736
O=C(O)c1ccccc1C(=O)Nc1cccc2ccccc12	Naptalam	-2.718
C#CCN1CC(=O)N(COC(=O)C2C(C=C(C)C)C2(C)C)C1=O (stereo not given)	Imiprothrin	-10.21
COC(=O)C(C)N(C(=O)c1ccco1)c1c(C)cccc1C (stereo not given)	Furalaxyl	-9.037